Data from patent US11458134B2, “1-[2-(2,4-dimeihylphenylsulfanyl)-phenyl]piperazine as a compound with combined serotonin reuptake, 5-HT3 and 5-HT1A activity for the treatment of cognitive impairment” (H. Lundbeck A/S, priority 2006, dated 2022).

Assay: Solubility in water

solubility in water: ~700 µg/mL
Substance: 1-[2-(2,4-Dimethylphenylsulfanyl)-phenyl]piperazine meso-tartaric acid [meso-tartrate]
